The values that follow are results of earlier work, collected in patent US7179645B2 (priority 2002, dated 2007).

For this data set, the target named is HER-2/neu receptor (Homo sapiens, UniProt P04626). The note with it: in vivo; cited from earlier work.

On to Herceptin®, for which the “1 year survival rate” value was 78%, the “duration of response (median)” value is listed as 9.1, the median survival was 25.1 mo and the “rate of objective response” value is recorded as 50%. Further, the “reduction in the risk of death” value is 20% and the “time to disease progression” value is given as 7.4 mo.
